Measurements as given in patent US10376456B2, “Concentrated and self-preserving compositions of mild surfactants for transparent and skin-pH personal care formulations” (GALAXY SURFACTANTS LTD., priority 2015, dated 2019).

Assay: Critical micelle concentration (CMC)
Format: physicochemical
Excerpt: It is well established that in case of surfactants, lower the CMC value, milder the surfactants. Ionic surfactant molecules interact with proteins through charge-charge interaction since the charge density on the head group is high. Whenever aggregates are formed the charge density of micelle is much lesser as the charge gets spread over the large micelle. […] It can be seen from Table 2 that CMC of anionic sodium lauryl sulphate (SLS) is the highest and zwitterionic (electrically neutral) cocoamidopropyl (CAPB) is the lowest.

Q: Which CMC does the source give for potassium cocoyl glutamate here?
A: 1.01 mM/liter
